## Ab-14 heavy chain CDR variants: yeast mating affinities

Source: Li et al. 2023 (doi:10.1038/s41467-023-39022-2), MIT Lincoln Laboratory and A-Alpha Bio; data file from the FLAb repository.

Target peptide (SARS-CoV-2 spike, HR2 region): PDVDLGDISGINAS

The variants keep the light chain, the linker and the frameworks of Ab-14 (scFv order VH, a 15-residue (Gly4Ser)3 linker, VL).
VH: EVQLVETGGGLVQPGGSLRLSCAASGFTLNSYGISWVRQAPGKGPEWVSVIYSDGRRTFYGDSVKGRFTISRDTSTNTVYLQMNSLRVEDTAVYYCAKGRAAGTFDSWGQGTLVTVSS
VL: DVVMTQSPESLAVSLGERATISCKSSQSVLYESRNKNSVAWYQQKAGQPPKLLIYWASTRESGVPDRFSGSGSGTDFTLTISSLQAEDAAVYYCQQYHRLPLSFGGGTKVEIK

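The parent was found by panning a naive human phage display library on the peptide. The variants were designed computationally from a first round of random CDR variants and then made and measured. Several design methods are mixed in this list. Affinity was read by AlphaSeq, a pooled yeast mating assay with surface-displayed partners. After mating in shaken culture at 30 °C for 16 h, diploids were selected and their barcode pairs sequenced. The ratio of observed to expected reads was calibrated, replicate by replicate, on BCL2-family standards whose Kd was known from biolayer interferometry. The assay was run in six technical replicates.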

Each variant is given by its three heavy chain CDRs, as the data file delimits them; those of the parent are GFTLNSYGIS, VIYSDGRRTFYGDSVK, GRAAGTFDS.
Affinities are written as log10 Kd with Kd in nM; a lower number is a better binder.
The mean shown is taken over the replicates in which the pair was detected.
Where no diploid with the target was found in any replicate, the entry reads "not detected": below detection, most likely a poor binder, though not proof of it.

| CDR-H1 | CDR-H2 | CDR-H3 | log10 Kd (nM), mean | seen in | signal with controls |
|---|---|---|---|---|---|
| GFDLNEYGIS | VIYADGRRSFYADSVK | GQVAGTFDV | 0.22 | 6 of 6 | 0 of 18 |
| GFSLNSYGIS | VIYSDGRRTAYHDSVK | GRAAGTFDS | 0.40 | 6 of 6 | 0 of 18 |
| GFWLNSYGIS | VIYSDGRRTFYKDSVK | GQAAGTFDS | not detected | 0 of 6 | 0 of 18 |
| GFGLNEYGIS | VIYSDGRRTFYGDNVK | GRTAGTFDS | -0.22 | 6 of 6 | 0 of 18 |
| GFTLNSYGIS | VIYSDGRDTFYSDSVK | GRSAATFPS | not detected | 0 of 6 | 0 of 18 |
| GFTLNEYGIS | VIYSDGKRTFYSDSVK | GRAAGFFDS | -0.03 | 6 of 6 | 0 of 18 |
| GFDLDEYGIS | VIYADGMRTAYVDSVK | GNVAGTFDQ | -0.42 | 6 of 6 | 0 of 18 |
| GFDVDEYGIS | VIYADGKRSMYADKVK | GVIADGMMV | not detected | 0 of 6 | 0 of 18 |
| GFDLNEYGIS | VIYADGLRTQYAESFK | GDLAGYFDS | not detected | 0 of 6 | 0 of 18 |
| GTTNNSYGGS | VIYSDGRRTFYGGSVK | GRGKGTFDS | not detected | 0 of 6 | 0 of 18 |
| GFDLDEYGIS | VIYADGMRTFYTDSVK | GGNAGTFDV | -0.58 | 6 of 6 | 1 of 18 |
| GFDLNEYGIS | VIYADGRRTFYIDSVK | GQVAGTFDK | -0.77 | 6 of 6 | 0 of 18 |
| GFQLNSYGIS | VIYSDGRRTFYGDSVK | GKNAGTFDT | 1.54 | 6 of 6 | 0 of 18 |
| GFTLNSYGIS | VIYSDGKRTFYGDAVK | GRTAGTFDS | 1.52 | 6 of 6 | 0 of 18 |
| GFDLNSYGIS | VIYSDGRRTFYGDSVK | GRTAGTFDA | -0.53 | 6 of 6 | 1 of 18 |
| GFDLNEYGIS | VIYADGKRTFYADSVK | GNVAGTFDS | -0.66 | 6 of 6 | 0 of 18 |
| GRTINNYGIS | VIYSDGRRTFYNDSVK | GRAAKTSEW | not detected | 0 of 6 | 0 of 18 |
| GFTLNQYGIS | VIYSDGRRTFYGDSVK | GYAAGTFDS | 2.09 | 1 of 6 | 1 of 18 |
| GFNLDEFGIS | VIYADGNRTFYLDSFK | GENVGAVDT | 2.36 | 1 of 6 | 0 of 18 |
| GFTLNSYGIS | VIYSDGRRTFYTDDVK | GEAAGTFDS | 1.12 | 6 of 6 | 0 of 18 |
| GFNLNEYGIS | VIYADGQRTFYADSVK | GQQAGTFDM | 0.86 | 6 of 6 | 1 of 18 |
| GFDLNEYGIS | VIYADGRRTAYSDSVK | GEAGGTFDT | -0.05 | 6 of 6 | 0 of 18 |
| GFSLESYGIS | VIYSDGKRTFYGDSVK | GRTAGTFDS | 0.27 | 6 of 6 | 0 of 18 |
| GFTLMNYGIS | VIYSDGQRTYYGDSVK | GRWAGTFDS | not detected | 0 of 6 | 0 of 18 |
| GFTINSYGIS | VIYSDGRRTFYSDSVK | GRVAGTFDS | 0.74 | 6 of 6 | 0 of 18 |
| GFTSNEYGIS | VIYSDGRRTFYTDSVK | TRFAGTFDS | not detected | 0 of 6 | 0 of 18 |
| GFDLDEYGIS | VIYADGKRTYYADSVK | GNQAGTFDV | -0.25 | 6 of 6 | 0 of 18 |
| GFNLNSYGIS | VIYSDGRRTFYKDSVK | GWTAGTFDS | 0.15 | 6 of 6 | 0 of 18 |
| GFTLNDYGIS | VIYSDGRRTFYGDSVK | GRAAKTFIS | not detected | 0 of 6 | 0 of 18 |
| GFSLDEYGIS | VIYADGRRTFYADSVK | GNMAGTFDS | -0.18 | 6 of 6 | 0 of 18 |
| GFNLEDYGIS | VIYADGHRASMVESVK | GHLAGTFFE | not detected | 0 of 6 | 0 of 18 |
| GTTLNSYGIS | VIYSDGRRTFYGDSVS | GSAAGTFDS | not detected | 0 of 6 | 1 of 18 |
| GFDLNTYGIS | VIYSDGRRTFYGDSVK | GRQAGTFDS | -0.22 | 6 of 6 | 0 of 18 |
| GFTLESYGIS | VIYSDGRRTFYADMVK | GRAAGTFDS | 2.23 | 5 of 6 | 0 of 18 |
| QFGLNSYGIS | VIYSDGRRTFYGDSVK | GRNAKTFDS | not detected | 0 of 6 | 0 of 18 |
| GFDLNEYGIS | VIYADGRRTAYVDSVK | GTNAGTFDV | -0.55 | 6 of 6 | 0 of 18 |
| GFDLNEYGIS | VIYADGKRTFYADSVK | GNVAGTFDT | -0.64 | 6 of 6 | 0 of 18 |
| GFTLNEYGIS | VIYSDGRRTFYYDSVK | GRYAGTFDS | 3.92 | 1 of 6 | 1 of 18 |
| GFTLNDYGIS | VIYSDGRRTFYGDSVK | GRAAGTFMK | 1.21 | 5 of 6 | 0 of 18 |
| GFTLNEYGIS | VIYSDGRRTFYGDSVK | GKAAWTFDS | not detected | 0 of 6 | 0 of 18 |
| GFELNSYGIS | VIYADGRRTFYGDSVK | GRTAGTFDK | -0.19 | 6 of 6 | 0 of 18 |
| GFWLNDYGIS | VIYSDGRRTFYADSVK | GRAAGTFDE | 1.05 | 1 of 6 | 0 of 18 |
| GFDLTEYGIS | VIYADGRRTEYSTDVK | GQVAGHFLD | not detected | 0 of 6 | 0 of 18 |
| GFSLNSYGIS | VIYSDGRRTFYADSVK | GRAAGTFDS | 0.52 | 6 of 6 | 0 of 18 |
| GFNLNEYGIS | VIYADGKRKFYADSVK | GNTAGTFDS | -0.53 | 6 of 6 | 0 of 18 |
| GFTLNSYGIS | VIYSDGRRTFYGDSVK | GRAAGTKDQ | not detected | 0 of 6 | 0 of 18 |
| GFNLDEYGIS | VIYADGVRTAYADSVK | GEVAGTFDL | -0.47 | 6 of 6 | 0 of 18 |
| GFDLNEYGIS | VIYADGMRTFYSDSVK | GENAGFFDV | 3.77 | 1 of 6 | 0 of 18 |
| GFTLNDYGIS | VIYSDGWRTFYGDSVK | GRAAGTFHP | not detected | 0 of 6 | 0 of 18 |
| GFSLNSYGIS | VIYSDGRRTFYGDDVK | GRTAGTFDT | 0.38 | 6 of 6 | 0 of 18 |
| GFDLNEYGIS | VIYADGMRTAYSDSVK | GEAGGTFDV | 0.13 | 6 of 6 | 0 of 18 |
| GFKLNSYGIS | VIYSDGRRTFYIDSVK | GREAGTFDS | 1.54 | 4 of 6 | 0 of 18 |
| GFSLNDYGIS | VIYSDGKRTFYGDSVK | GRQAGTFDS | -0.25 | 6 of 6 | 0 of 18 |
| GFTLDSYGIS | VIYQDGRRTFYGDSVK | GRAAGTALS | not detected | 0 of 6 | 0 of 18 |
| GFNLNEYGIS | VIYADGRRTFYSDSVK | GEAAGTFDT | -0.57 | 6 of 6 | 1 of 18 |
| GFTLMSYGIS | VIYSDGRRTFYRDQVK | GRAAGTFDS | not detected | 0 of 6 | 1 of 18 |
| GFDLNEYGIS | VIYADGKRTAYSDNVK | GNVAGTFDV | 0.58 | 1 of 6 | 0 of 18 |
| GFTLNNYGIS | VIYSDGRRTFYHDSVK | GQLAGTFDS | 0.33 | 6 of 6 | 0 of 18 |
| GFNLNEYGIS | VIYADGVRTFYADSVK | GQQAGTFDM | -0.39 | 6 of 6 | 1 of 18 |

Top 5 of the variants detected in all replicates, tightest first:

| CDR-H1 | CDR-H2 | CDR-H3 | log10 Kd (nM), mean | seen in | signal with controls |
|---|---|---|---|---|---|
| GFDLNEYGIS | VIYADGRRTFYIDSVK | GQVAGTFDK | -0.77 | 6 of 6 | 0 of 18 |
| GFDLNEYGIS | VIYADGKRTFYADSVK | GNVAGTFDS | -0.66 | 6 of 6 | 0 of 18 |
| GFDLNEYGIS | VIYADGKRTFYADSVK | GNVAGTFDT | -0.64 | 6 of 6 | 0 of 18 |
| GFDLDEYGIS | VIYADGMRTFYTDSVK | GGNAGTFDV | -0.58 | 6 of 6 | 1 of 18 |
| GFNLNEYGIS | VIYADGRRTFYSDSVK | GEAAGTFDT | -0.57 | 6 of 6 | 1 of 18 |

The authors' rule: three or more of the six replicates give a measured affinity, fewer mean a poor binder.
A sequence measured in both rounds can read differently, since the two assays cover different ranges.
Background: pairings of all heavy chain designs with three empty control strains gave a value in 1% of cases (median 2.08, 5th percentile 0.84). Values in that range, when seen in few replicates, are hard to tell from nonspecific mating. Also given: how often the same scFv was detected with the empty control strains.
Of ten entries with the parent sequence, four were seen in most replicates (averages 0.34 to 2.37), three in one and three in none, so single entries are noisy.